Measured values as given in ChEMBL document CHEMBL1250455, “Further delineation of hydrophobic binding sites in dopamine D(2)/D(3) receptors for N-4 substituents on the piperazine ring of the hybrid template 5/7-{[2-(4-aryl-piperazin-1-yl)-ethyl]-propyl-amino}-5,6,7,8-tetrahydro-naphthalen-2-ol” (Bioorg Med Chem, 2010).

The chains behind the UniProt entries cited, without tags or fusion partners.
UniProt P61169, whole entry: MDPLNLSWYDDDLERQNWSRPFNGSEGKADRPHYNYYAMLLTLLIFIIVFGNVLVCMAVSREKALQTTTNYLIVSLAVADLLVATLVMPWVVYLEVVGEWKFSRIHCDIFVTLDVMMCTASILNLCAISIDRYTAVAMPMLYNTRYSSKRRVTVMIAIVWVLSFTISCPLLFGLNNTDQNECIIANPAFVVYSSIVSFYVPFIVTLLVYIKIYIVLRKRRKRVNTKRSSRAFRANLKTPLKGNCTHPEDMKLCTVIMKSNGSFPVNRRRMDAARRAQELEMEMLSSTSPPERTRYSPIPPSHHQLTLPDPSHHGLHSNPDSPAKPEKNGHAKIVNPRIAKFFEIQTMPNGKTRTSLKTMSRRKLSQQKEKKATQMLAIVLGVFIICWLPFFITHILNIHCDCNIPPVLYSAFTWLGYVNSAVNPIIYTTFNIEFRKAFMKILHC

Columns and labels:
[1] = target: D(2) dopamine receptor (Rattus norvegicus, UniProt P61169); test: Displacement of [3H]spiperone from rat D2 receptor expressed in HEK293 cells; type: cell-based
[2] = organism: Rattus norvegicus; test: Selectivity ratio for Ki for rat D2 receptor to Ki for rat D3 receptor

Ki [1]: 0.0132 µM | Ratio Ki [2]: 8.63
Structure (SMILES): CCCN(CCN1CCN(c2ccc(-c3ccncc3)cc2)CC1)C1CCc2c(O)cccc2C1 (single isomer, unassigned; (-))
